Consider one compound from ChEMBL document CHEMBL4613261, “Metabolic and Pharmaceutical Aspects of Fluorinated Compounds” (J Med Chem, 2020).

The structures appear in SMILES notation. Some compounds may have been tested in ways that are not shown here.

The term pKa denotes the pH at which an ionisable group is half protonated. The low end stands for a stronger acid or weaker base, the high end for a weaker acid or stronger base.

This series in a line: Dissociation constant, pKa of the compound.

As to `CCC(=O)N(c1ccccc1)C1CCN(CCc2ccccc2)CC1`, the pKa was greater than 8.
